Drawing on patent US20250326741A1, “GLUCOSE-DEPENDENT INSULINOTROPIC POLYPEPTIDE RECEPTOR ANTAGONISTS AND USES THEREOF” (Pfizer Inc., priority 2024, published 2025), this text covers IC50 for 7 compounds.

pIC50: −log10 of the molar value.

In the experiment the target is T1, human Glucose-dependent Insulinotropic Polypeptide Receptor (hGIPR) (Homo sapiens, UniProt P48546).
T1 sequence (P48546 22-466): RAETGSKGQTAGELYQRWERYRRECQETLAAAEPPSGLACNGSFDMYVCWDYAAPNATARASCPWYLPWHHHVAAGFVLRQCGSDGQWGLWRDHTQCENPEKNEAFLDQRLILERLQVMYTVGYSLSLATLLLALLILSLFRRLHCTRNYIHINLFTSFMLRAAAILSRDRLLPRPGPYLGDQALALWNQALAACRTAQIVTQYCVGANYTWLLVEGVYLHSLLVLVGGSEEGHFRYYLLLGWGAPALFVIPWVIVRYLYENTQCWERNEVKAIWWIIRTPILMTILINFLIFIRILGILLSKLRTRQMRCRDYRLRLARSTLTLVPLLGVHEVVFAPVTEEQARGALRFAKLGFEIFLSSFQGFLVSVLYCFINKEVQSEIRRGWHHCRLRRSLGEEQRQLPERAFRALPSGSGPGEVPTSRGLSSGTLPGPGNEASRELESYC
As to the kind of experiment: Functional in vitro GIPR antagonist potency assay (intracellular cAMP, HTRF, hGIP stimulation at EC80). Type of experiment: cell-based. To be noted: geometric mean; CHO-K1 cells stably expressing human GIPR, cAMP after hGIP stimulation at EC80. On the procedure: Example AA. Functional In Vitro GIPR Antagonist Potency Assay
The functional in vitro antagonist potency for test compounds was determined by monitoring intracellular cyclic adenosine monophosphate (cAMP) levels in Chinese hamster ovary (CHO)—K1 cells stably expressing the human Glucose-dependent Insulinotropic Polypeptide Receptor (hGIPR). Following agonist activation, hGIPR associates with the G-protein complex causing the Gas subunit to exchange bound guanosine diphosphate (GDP) for guanosine triphosphate (GTP), followed by dissociation of the Gas-GTP complex. The activated Gas subunit can couple to downstream effectors to regulate the levels of second messengers or cAMP within the cell. Thereby, determination of intracellular cAMP levels allows for pharmacological characterization. Intracellular cAMP levels are quantitated using a homogenous assay utilizing the Homogeneous Time Resolved Fluorescence (HTRF) technology from Perkin Elmer. The method is a competitive immunoassay between native cAMP produced by the cells and cAMP labelled with the acceptor dye, d2. The two entities compete for binding to a monoclonal anti-cAMP antibody labeled with cryptate. The specific signal is inversely proportional to the concentration of cAMP in the cells.
Test compounds were solubilized to a concentration of 30 mM in 100% dimethyl sulfoxide (DMSO). An 11-point dilution series using 1 in 3.162-fold serial dilutions was created in 100% DMSO with a top concentration of 8 mM. The serially diluted compound was spotted with an Echo Acoustic liquid handler (Beckman Coulter) into a 384-well assay plate (Corning, Cat No. 3824) at 50 nL/well with duplicate points at each concentration, at a 200× final assay concentration (FAC). The final compound concentration range in the assay was 40 μM to […], with a final DMSO concentration of 0.5%.
Frozen assay-ready vials (at 1×10^7 cells/vial) of CHO-K1 cells stably expressing the Gs-coupled human GIPR receptor (Eurofins, DiscoverX, Cat No. 95-0146C2) were thawed, counted, and resuspended in assay buffer consisting of Hank's Balanced Salt Solution (HBSS, Lonza Cat No. 10-527) containing 20 mM (4-(2-hydroxyethyl)-1-piperazineethanesulfonic acid (HEPES, Lonza, Cat No. 17-737E), 0.1% bovine serum albumin (BSA, Sigma, Cat No. A7979), and 200 μM 3-isobutyl-1-methylxanthine (IBMX, Sigma, Cat No. 15879) at a density of 4×10^5 cells/mL. Cells were added to assay plate (5 μL/well of 4×10^5 cells/mL stock for 2,000 cells/well final) containing 50 nL of 200×FAC test compound, and incubated at 37° C. (95% O2: 5% CO2) for 2 hours, with micro-clime lids (Labcyte, Cat No. LLS-0310). Following the 2-hour cell and compound incubation, a stimulation mix comprised of hGIPR agonist human glucose-dependent insulinotropic polypeptide (hGIP, full length, Sigma Cat No. G2269) in assay buffer/0.1% DMSO was added to the assay plate (5 μL/well) at an estimated EC80 FAC (based on previous hGIP agonist curves) and incubated for another 30 minutes with micro-clime lids at 37° C. (95% O2: 5% CO2), after which intracellular cAMP levels were quantified as per Perkin Elmer's protocol (5 μL of d2 and then 5 μL cryptate, incubated for 1 hour at room temperature). Emission spectra of samples were measured on a Pherastar plate reader (BMG Labtech Inc) using a HTRF protocol (excitation, 320 nm; emission, 665 nm/620 nm).
hGIP EC50 was determined daily by incubating cells (5 μL/well of 4×10^5 cells/mL stock, for 2,000 cells/well final) with 50 nL 100% DMSO for 2 hours at 37° C. (95% O2: 5% CO2), with a micro-clime lid. Following the 2-hour cell and DMSO incubation, a hGIP concentration response curve at 2×FAC (12-point curve using 1 in 3 serial dilutions, with triplicate points at each concentration, 100 nM final top concentration) in assay buffer/1% DMSO was added (5 μL/well) and incubated for a further 30 minutes with a micro-clime lid at 37° C. […]
Turning to `CC(C)c1ccc(NC(=O)N2CCC[C@@H]2C(=O)Nc2ccn(-c3ccc(C(=O)O)cc3)n2)cc1F` [Example 1, 4-{3-[(1-{[3-Fluoro-4-(propan-2-yl)phenyl]carbamoyl}-D-prolyl)amino]-1H-pyrazol-1-yl}benzoic Acid], the pIC50 was 8.16.

Turning to `Cc1cc(-n2ccc(NC(=O)[C@H]3CCCN3C(=O)Nc3ccc(C(C)C)c(F)c3)n2)ccc1C(=O)O` [Example 5, 4-{3-[(1-{[3-Fluoro-4-(propan-2-yl)phenyl]carbamoyl}-D-prolyl)amino]-1H-pyrazol-1-yl}-2-methylbenzoic Acid], the pIC50 is 8.08.

On to `Cc1c(C(=O)O)ccc(-n2ccc(NC(=O)[C@H]3CCCN3C(=O)Nc3ccc(C(C)C)cc3)n2)c1F` [Example 10, 3-Fluoro-2-methyl-4-{3-[(1-{[4-(propan-2-yl)phenyl]carbamoyl}-D-prolyl)amino]-1H-pyrazol-1-yl}benzoic Acid], for which the pIC50 is 8.13.

As for `Cc1cc(NC(=O)N2CCC[C@@H]2C(=O)Nc2ccn(-c3ccc(C(=O)O)cc3F)n2)ccc1C(C)C` [Example 7, 3-Fluoro-4-{3-[(1-{[3-methyl-4-(propan-2-yl)phenyl]carbamoyl}-D-prolyl)amino]-1H-pyrazol-1-yl}benzoic Acid], the negative logarithm of the IC50 (pIC50) was 8.00.

Regarding `Cc1cc(NC(=O)N2CCC[C@@H]2C(=O)Nc2ccn(-c3ccc(C(=O)O)c(C)c3F)n2)ccc1C(C)C` [Example 13, 3-Fluoro-2-methyl-4-{3-[(1-{[3-methyl-4-(propan-2-yl)phenyl]carbamoyl}-D-prolyl)amino]-1H-pyrazol-1-yl}benzoic Acid], the pIC50 is 7.92.

`Cc1cc(-n2ccc(NC(=O)[C@H]3CCCN3C(=O)Nc3ccc(C(C)C)c(C)c3)n2)c(F)cc1C(=O)O` [Example 12, 5-Fluoro-2-methyl-4-{3-[(1-{[3-methyl-4-(propan-2-yl)phenyl]carbamoyl}-D-prolyl)amino]-1H-pyrazol-1-yl}benzoic Acid] had a pIC50 of 8.06.

Regarding `Cc1cc(-n2ccc(NC(=O)[C@H]3CCCN3C(=O)Nc3ccc(C(F)(F)F)cc3)n2)ccc1C(=O)O` [Example 4, 2-Methyl-4-{3-[(1-{[4-(trifluoromethyl)phenyl]carbamoyl}-D-prolyl)amino]-1H-pyrazol-1-yl}benzoic Acid], the pIC50 is 7.74.

A word on the pIC50: it is −log10 of the IC50, conventionally taken in molar units. A high value points to a low IC50.
